Results from patent US20230227492A1 (priority 2020, published 2023).

Protein sequences, listed by entry. Tags and fused reporters are not part of them. Residues count along the entry.
UniProt P15207, 651-882 limits assumed: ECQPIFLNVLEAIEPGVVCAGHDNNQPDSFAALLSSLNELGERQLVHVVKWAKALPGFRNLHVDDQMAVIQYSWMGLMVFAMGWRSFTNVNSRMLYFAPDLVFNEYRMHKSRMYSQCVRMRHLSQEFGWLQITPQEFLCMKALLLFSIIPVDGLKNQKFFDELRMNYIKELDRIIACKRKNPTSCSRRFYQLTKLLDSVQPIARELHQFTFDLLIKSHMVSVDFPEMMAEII

Target: T1, rat AR ligand-binding domain tagged with His and GST [AR-LBD (His-GST)] (Rattus norvegicus, UniProt P15207)
T1 construct: purchased Life Technologies (Carlsbad, Calif.)
Test: AR fluorescence polarization (FP) binding assay
Details: Fluormone AL Green

| Compound | IC50 (nM) AR |
| --- | --- |
| CC12CCC(=O)C=C1CC(c1ccccc1)C1C2CCC2(C)C(O)CCC12 (stereo not drawn) [CDB-4920, 7α-Phenyl Testosterone] | 43.1 nM |
| CC12CCC(=O)C=C1CC(c1ccccc1)C1C2CCC2(C)C(O)CCC12 (stereo not drawn) [CDB-4921, 7β-Phenyl Testosterone] | 891.7 nM |
